Assay results: patent US11324832B2, “Tripartite modulators of endosomal G protein-coupled receptors” (Endosome Therapeutics, Inc., priority 2015, dated 2022)

Chains of the proteins cited; added tags and fusions are not shown. Residues count along the entry.
UniProt O60894, 27-148: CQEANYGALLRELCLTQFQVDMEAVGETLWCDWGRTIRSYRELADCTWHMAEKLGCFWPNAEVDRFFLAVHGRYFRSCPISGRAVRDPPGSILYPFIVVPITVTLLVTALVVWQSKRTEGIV
UniProt Q16602, 23-461: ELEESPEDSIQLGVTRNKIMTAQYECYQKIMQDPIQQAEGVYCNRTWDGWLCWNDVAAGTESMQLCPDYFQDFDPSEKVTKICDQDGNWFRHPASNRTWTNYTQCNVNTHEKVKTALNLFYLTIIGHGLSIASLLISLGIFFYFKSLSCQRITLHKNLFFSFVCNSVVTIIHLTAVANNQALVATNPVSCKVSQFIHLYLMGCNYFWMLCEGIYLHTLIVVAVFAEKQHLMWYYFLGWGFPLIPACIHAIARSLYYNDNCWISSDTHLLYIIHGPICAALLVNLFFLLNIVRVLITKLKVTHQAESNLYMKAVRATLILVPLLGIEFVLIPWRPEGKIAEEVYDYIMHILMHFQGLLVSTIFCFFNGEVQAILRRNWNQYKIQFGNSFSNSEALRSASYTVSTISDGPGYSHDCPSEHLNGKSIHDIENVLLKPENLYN

Target: T1, CLR plus RAMP1 (Homo sapiens, UniProt O60894+Q16602)
T1 construct: expressed in transfected cells; host or cells: HEK293 (transient)
Assay: FRET ERK biosensors in HEK293 cells expressing CLR plus RAMP1
Assay type: cell-based
Conditions: preincubation 30 min
Method: HEK293 cells were transfected with 55 ng/well rat NK1R with N-terminal HA. 11 epitope tag (HA-NK1R) or CLR plus RAMP1 and 40 ng/well FRET biosensors. FRET was assessed 48 h after transfection, following serum restriction (0.5% FBS overnight). For experiments using clathrin or dynamin siRNA, cells were transfected with 55 ng/well rat HA-NK1R, 40 ng/well FRET biosensor and 25 nM/well scrambled, clathrin or dynamin ON-TARGETplus SMARTpool siRNA (GE Dharmacon). FRET was assessed 72 h after transfection, following serum restriction (0.5% FBS overnight). Cells were equilibrated in HBSS at 37° C. and FRET was analyzed using a GE Healthcare INCell 2000 Analyzer. For GFP/RFP emission ratio analysis, cells were sequentially excited using a FITC filter (490/20) with emission measured using dsRed (605/52) and FITC (525/36) filters, and a polychroic optimized for the FITC/dsRed filter pair (Quad4). For CFP/YFP emission ratio analysis, cells were sequentially excited using a CFP filter (430/24) with emission measured using YFP (535/30) and CFP (470/24) filters, and a polychroic optimized for the CFP/YFP filter pair (Quad3). Cells were imaged every 1 min, allowing image capture of 14 wells per minute. Baseline emission ratio images were captured for 4 min. […] Data were analyzed as described and expressed as emission ratios relative to baseline for each cell (F/F0). […]

Substance: VTHRLAGLLSRSGGVVKDNFVPTNVGSEAF-NH2 [CGRP8-37, CGRP-R / CLR antagonist]
- antagonism of CGRP-stimulated cytosolic ERK, preincubation: inhibited CGRP-stimulated activation of nuclear and cytosolic ERK
- antagonism of CGRP-stimulated nuclear ERK, preincubation: inhibited CGRP-stimulated activation of nuclear and cytosolic ERK
